Measurements published in BindingDB's records for doi:10.1021/jm00020a029 (Merck Research Laboratories, 1995).

Test: Evaluated for the activation of human thrombin receptor measured by platelet aggregation

Q: For CC(C)C[C@H](NC(=O)[C@H](CC(C)C)NC(=O)[C@H](Cc1ccccc1)NC(=O)CCN)C(=O)N[C@@H](CCCNC(=N)N)C(N)=O [(S)-2-[(S)-2-(3-Amino-propionylamino)-3-phenyl-propionylamino]-4-methyl-pentanoic acid [(S)-1-((S)-1-carbamoyl-4-guanidino-butylcarbamoyl)-3-methyl-butyl]-amide], which EC50 is on record?
A: 35 µM
